# Data: PubChem BioAssay AID588335 (The Scripps Research Institute Molecular Screening Center, 2011)
# Only a part is listed here, and it is no random draw. Some tests of the compounds listed are not included; inactive here does not mean inactive elsewhere. Calls of active or inactive are those of the source. Rule as the data show it: active = inhibition above about 30%; inactive = the rest.
# Test: inhibition of GDH and TPI enzymes – biochemical, absorbance, full deck, artefact control for M. tuberculosis FBA inhibitor project, primary screen (AID 588335);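 also: 0% = DMSO wells and 100% = wells lacking the enzyme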
# Conditions: GDH-TPI coupled enzyme counterscreen, NADH absorbance; at 4.8 µM; hits give high values
row,SMILES,inhibition
1,COc1ccc(C(=O)NCC2(N(C)C)CCCCC2)cc1,inactive: -9.87%
2,Cc1cc(C(=O)NCC2(N3CCCCC3)CCCCC2)ccc1[N+](=O)[O-],inactive: 1.82%
3,CCN1CCCC(OC(=O)C2(O)c3ccccc3C=Cc3ccccc32)C1 (stereo unspecified),inactive: -1.5%
4,O=C(NCC1(N2CCCCC2)CCCCC1)c1cccc(Br)c1,inactive: 2.26%
5,C=CCN1CCN(CCOC(=O)C(O)(c2ccccc2)c2ccccc2)CC1,inactive: 3.88%
6,O=C(NCC1(N2CCCCC2)CCCCC1)c1cc(F)c(F)cc1Cl,inactive: -3.73%
7,Cc1ccccc1C(=O)NCC1(N2CCCCC2)CCCCC1,inactive: -4.49%
8,CN(C)C1CCCC1OC(=O)C(O)(c1ccccc1)c1ccccc1 (stereo unspecified),inactive: 5.62%
9,CN(C)c1ccc(C(=O)NCC2(N(C)C)CCCCC2)cc1,inactive: 5.71%
10,Cc1ccc(C(=O)NCC2(N3CCCCC3)CCCCC2)cc1,inactive: -8.02%
11,CCN(CC)CC(C)C(C)OC(=O)C(O)(c1ccccc1)c1ccccc1 (stereo unspecified),inactive: -1.23%
12,COc1cc(SC)ccc1C(=O)NCC1(N(C)C)CCCCC1,inactive: 7%
13,CC(C)N1C(=O)CC2(CCN(CCOC(=O)C(O)(c3ccccc3)c3ccccc3)CC2)C1=O,inactive: -7.06%
14,CN1[C@@H]2CC[C@H]1CC(OC(=O)C(O)(c1ccccc1)c1ccccc1)C2 (stereo partly specified),inactive: 0.42%
15,O=C(NCC1(N2CCCCC2)CCCCC1)c1cc([N+](=O)[O-])ccc1Cl,inactive: 1.88%
16,CC(C)Oc1ccc(C(=O)NCC2(N(C)C)CCCCC2)cc1,inactive: 2.54%
17,O=C(OCCN1CCCC1)C(O)(c1ccccc1)c1ccccc1,inactive: 3.88%
18,CN(C)c1cccc(C(=O)NCC2(N(C)C)CCCCC2)c1,inactive: 3.36%
19,C=C(C)C#CC(O)(C(=O)OC1CCN(C)CC1)c1ccccc1 (stereo unspecified),inactive: 9.96%
20,COc1ccc(Br)c(C(=O)NCC2(N3CCCCC3)CCCCC2)c1,inactive: 13.6%
21,O=C(OC1CN2CCC1CC2)C(CO)(c1ccccc1)c1ccccc1 (stereo unspecified),inactive: -5.99%
22,O=C(NCC1(N2CCCCC2)CCCCC1)c1cccc(Cl)c1,inactive: 3.72%
23,COc1cccc(C(=O)NCC2(N3CCCCC3)CCCCC2)c1,inactive: 15.8%
24,COc1ccc(Cl)cc1C(=O)NCC1(N(C)C)CCCCC1,inactive: -7.62%
25,COc1cc(C(=O)NCC2(N(C)C)CCCCC2)c([N+](=O)[O-])cc1OC,inactive: 18%
26,CN(C)C1(CNC(=O)c2ccc(Br)cc2)CCCCC1,inactive: -1%
